This note sets out measurements from patent US20240166643A1, “IMIDAZO[1,2-A]PYRIDINE COMPOUNDS AND THEIR USE IN THERAPY” (Imperial College Innovations Limited, priority 2020, published 2024).

This test deals with SU-DHL-10 cells. The test is described as follows: Cell cytotoxicity in SU-DHL-10 cell line (CellTiter-Glo). Format: cell-based, human. Conditions: read-out: SU-DHL-10 EC50, 48 h. (In general: Cellular ATP, detected with luciferase, serves as a proxy for viable cell number.)

Broadly, the EC50 is the concentration giving half of the maximal effect. For `C[C@@H]1CN(c2ncc(F)c(N3CC(C(=O)NC(C)(C)c4cnc5ccccn45)C3)n2)CCN1`, the EC50 is 676 nM.
